Where “and” joins values, the source holds several entries; their conditions need not be identical. Equal values may be shown once.
Tests used:
rat mGlu3 = rat mGlu3 (Rattus norvegicus, UniProt P31422); conditions: LLE (ligand-lipophilicity efficiency) = pIC50 – cLogP
rat mGlu5 = rat mGlu5 (Rattus norvegicus, UniProt P31424); assay: Calcium mobilization mGlu5 assay; assay type: cell-based; conditions: selectivity mGlu3 vs mGlu5

The chains behind the UniProt entries cited, without tags or fusion partners. Residues count along the entry.
UniProt P31422, 23-879: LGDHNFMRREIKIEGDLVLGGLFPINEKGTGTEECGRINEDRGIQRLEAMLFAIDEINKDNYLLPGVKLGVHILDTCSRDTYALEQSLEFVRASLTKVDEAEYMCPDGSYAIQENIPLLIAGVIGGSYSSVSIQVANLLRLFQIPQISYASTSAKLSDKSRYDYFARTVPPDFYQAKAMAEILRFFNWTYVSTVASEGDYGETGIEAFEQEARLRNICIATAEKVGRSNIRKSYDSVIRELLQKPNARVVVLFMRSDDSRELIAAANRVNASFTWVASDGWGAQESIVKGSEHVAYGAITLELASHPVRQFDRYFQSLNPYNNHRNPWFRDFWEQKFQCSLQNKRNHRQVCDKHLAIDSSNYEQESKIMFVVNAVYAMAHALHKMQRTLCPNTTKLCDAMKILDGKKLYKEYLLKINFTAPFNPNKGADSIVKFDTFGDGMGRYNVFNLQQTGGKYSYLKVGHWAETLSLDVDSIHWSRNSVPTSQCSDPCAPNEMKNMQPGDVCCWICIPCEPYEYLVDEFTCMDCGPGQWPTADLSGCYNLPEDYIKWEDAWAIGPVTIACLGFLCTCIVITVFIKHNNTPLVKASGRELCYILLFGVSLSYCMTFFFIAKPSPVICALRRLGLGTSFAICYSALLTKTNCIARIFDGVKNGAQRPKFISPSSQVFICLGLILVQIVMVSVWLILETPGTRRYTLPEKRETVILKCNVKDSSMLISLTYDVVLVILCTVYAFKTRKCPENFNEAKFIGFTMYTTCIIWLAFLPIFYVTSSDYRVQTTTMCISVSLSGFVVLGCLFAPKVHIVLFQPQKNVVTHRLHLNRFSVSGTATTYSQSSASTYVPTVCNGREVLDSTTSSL
UniProt P31424, 21-1203: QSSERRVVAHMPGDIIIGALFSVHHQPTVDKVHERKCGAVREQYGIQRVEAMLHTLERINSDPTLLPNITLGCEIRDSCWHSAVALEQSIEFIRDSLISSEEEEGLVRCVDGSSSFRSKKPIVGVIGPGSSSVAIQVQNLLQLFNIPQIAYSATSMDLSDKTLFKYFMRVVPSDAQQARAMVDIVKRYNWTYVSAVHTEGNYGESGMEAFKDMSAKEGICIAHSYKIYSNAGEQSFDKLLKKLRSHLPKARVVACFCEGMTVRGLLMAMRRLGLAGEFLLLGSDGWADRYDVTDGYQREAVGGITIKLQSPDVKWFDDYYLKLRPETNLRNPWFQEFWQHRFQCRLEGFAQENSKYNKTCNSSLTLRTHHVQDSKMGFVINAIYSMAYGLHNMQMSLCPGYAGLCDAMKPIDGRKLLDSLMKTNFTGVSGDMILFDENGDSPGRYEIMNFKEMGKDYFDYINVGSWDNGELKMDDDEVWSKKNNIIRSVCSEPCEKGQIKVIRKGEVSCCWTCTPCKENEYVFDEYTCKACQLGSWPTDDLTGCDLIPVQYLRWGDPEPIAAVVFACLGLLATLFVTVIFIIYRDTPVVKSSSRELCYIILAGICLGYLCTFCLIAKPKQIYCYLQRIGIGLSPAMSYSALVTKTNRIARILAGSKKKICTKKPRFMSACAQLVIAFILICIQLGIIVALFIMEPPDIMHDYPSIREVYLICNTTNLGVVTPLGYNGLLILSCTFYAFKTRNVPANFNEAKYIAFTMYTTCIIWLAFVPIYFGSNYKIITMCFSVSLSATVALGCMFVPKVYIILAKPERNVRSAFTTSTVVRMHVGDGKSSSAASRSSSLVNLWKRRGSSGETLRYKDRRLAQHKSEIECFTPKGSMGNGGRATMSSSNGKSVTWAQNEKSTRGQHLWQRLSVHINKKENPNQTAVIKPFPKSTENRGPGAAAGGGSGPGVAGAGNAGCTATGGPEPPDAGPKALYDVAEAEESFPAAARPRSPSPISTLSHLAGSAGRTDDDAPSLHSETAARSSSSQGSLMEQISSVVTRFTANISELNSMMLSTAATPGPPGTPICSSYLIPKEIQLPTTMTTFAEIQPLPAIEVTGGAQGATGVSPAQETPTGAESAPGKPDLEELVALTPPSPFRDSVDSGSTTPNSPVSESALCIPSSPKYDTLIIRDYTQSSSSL

| SMILES | LLE (rat mGlu3) | fold vs mGlu5 (rat mGlu5) |
| --- | --- | --- |
| C[C@@H]1CN(c2ccc(F)cc2)C(=O)c2cc(COc3ccc(F)cc3)nn21 [Compound 24] | 2.38 |  |
| CCOc1ccc(OCc2cc3n(n2)[C@H](C)CN(c2ccc(F)cc2)C3=O)cc1 [Compound 38] | 1.70 | >25 fold |
| C[C@@H]1CN(c2ccc(F)cc2)C(=O)c2cc(COc3ccc(F)cn3)nn21 [Compound 47] | 3.21 | ~20 fold and >18 fold |
| C[C@@H]1CN(c2ccc(F)cc2)C(=O)c2cc(COc3ccc(Cl)cn3)nn21 [Compound 48] | 2.65 |  |
| C[C@@H]1CN(c2ccccc2F)C(=O)c2cc(COc3ccc(F)cn3)nn21 [Compound 55] | 3.73 | >61 fold |
| C[C@@H]1CN(c2cccc(F)c2)C(=O)c2cc(COc3ccc(F)cn3)nn21 [Compound 56] | 3.66 |  |
| C[C@@H]1CN(c2ccccc2Cl)C(=O)c2cc(COc3ccc(F)cn3)nn21 [Compound 57] | 3.28 |  |
| C[C@@H]1CN(c2cccc(Cl)c2)C(=O)c2cc(COc3ccc(F)cn3)nn21 [Compound 58] | 3.27 |  |
| Cc1cccc(N2C[C@@H](C)n3nc(COc4ccc(F)cn4)cc3C2=O)c1 [Compound 61] | 3.44 |  |
| C[C@@H]1CN(c2cccc(F)c2F)C(=O)c2cc(COc3ccc(F)cn3)nn21 [Compound 66] | 3.57 |  |
| C[C@@H]1CN(c2cc(F)ccc2F)C(=O)c2cc(COc3ccc(F)cn3)nn21 [Compound 67] | 3.75 | >81 fold |
| C[C@@H]1CN(c2c(F)cccc2F)C(=O)c2cc(COc3ccc(F)cn3)nn21 [Compound 68] | 3.58 |  |
| C[C@@H]1CN(c2ccccn2)C(=O)c2cc(COc3ccc(Cl)cn3)nn21 [Compound 100] | 3.91 | >91 fold |
| C[C@@H]1CN(c2cccnc2)C(=O)c2cc(COc3ccc(Cl)cn3)nn21 [Compound 101] | 4.06 | >49 fold |
| C[C@@H]1CN(c2cnccc2F)C(=O)c2cc(COc3ccc(Cl)cn3)nn21 [Compound 107] | 4.06 | >62 fold |
| C[C@@H]1CN(c2cncc(F)c2)C(=O)c2cc(COc3ccc(Cl)cn3)nn21 [Compound 108] | 4.06 | >62 fold |

Reference: publication PMC4809247 (Journal of medicinal chemistry, 2015)
